By UniProt entry, the sequences of proteins in these tests, tags left out.
UniProt P25099, whole entry: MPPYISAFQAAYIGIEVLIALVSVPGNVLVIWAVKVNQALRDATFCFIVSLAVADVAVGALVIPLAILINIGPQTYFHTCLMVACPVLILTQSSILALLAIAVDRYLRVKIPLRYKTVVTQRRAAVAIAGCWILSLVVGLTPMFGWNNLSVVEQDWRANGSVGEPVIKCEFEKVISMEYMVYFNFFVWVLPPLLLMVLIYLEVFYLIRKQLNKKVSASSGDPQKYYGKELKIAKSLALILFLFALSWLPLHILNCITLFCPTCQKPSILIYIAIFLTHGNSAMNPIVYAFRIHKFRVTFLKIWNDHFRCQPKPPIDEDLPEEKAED

In ChEMBL document CHEMBL1123597, “Synthesis and structure-activity relationships of pyrazolo[4,3-d]pyrimidin-7-ones as adenosine receptor antagonists” (J Med Chem, 1987):

What was measured:
[1] = target: Adenosine receptor A1 (Rattus norvegicus) (UniProt P25099); conditions: Brain; Membrane
[2] = target: Adenosine receptor A1 (Rattus norvegicus, UniProt P25099); test: Binding affinity against adenosine A1 receptor in rat brain membrane preparations using N6-[3H]cyclohexyladenosine as a radioligand; type: cell membranes
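Wherever PCY is given: radioligand displacement of N6-[3H]cyclohexyladenosine binding in rat brain membranes, PCY computed as the log of 100000 divided by IC50.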

Structure (SMILES) | PCY [1] | IC50 [2] [nM]
Cc1ccc(-c2nc3c(=O)n(C)c(=O)n(C)c3[nH]2)cc1 | 5.1 | –
Cn1c(=O)c2nc(-c3ccc(Cl)cc3)[nH]c2n(C)c1=O | 5.1 | –
Cn1c(=O)c2nc(-c3ccc([N+](=O)[O-])cc3)[nH]c2n(C)c1=O | 4.1 | –
Cn1c(=O)c2nc(-c3cccc(N)c3)[nH]c2n(C)c1=O | 4 | –
Cn1c(=O)c2nc(-c3cccc([N+](=O)[O-])c3)[nH]c2n(C)c1=O | 3.3 | –
COc1ccc(-c2nc3c(=O)n(C)c(=O)n(C)c3[nH]2)c(OC)c1 | 2.7 | –
COc1cc(OC)cc(-c2nc3c(=O)n(C)c(=O)n(C)c3[nH]2)c1 | 2.3 | –
COc1cccc(-c2nc3c(=O)n(C)c(=O)n(C)c3[nH]2)c1 | – | 2
